US20090117083A1, “IMMUNOMODULATORY ALKALOIDS” (M N L PHARMA LIMITED, priority 2004, published 2009)

Sequences of proteins named here, by UniProt entry; tags and fusion partners are left off. A change or cut given only in a name is not applied to a line headed by its entry. Residues count along the entry.
UniProt C0HJB3, whole entry: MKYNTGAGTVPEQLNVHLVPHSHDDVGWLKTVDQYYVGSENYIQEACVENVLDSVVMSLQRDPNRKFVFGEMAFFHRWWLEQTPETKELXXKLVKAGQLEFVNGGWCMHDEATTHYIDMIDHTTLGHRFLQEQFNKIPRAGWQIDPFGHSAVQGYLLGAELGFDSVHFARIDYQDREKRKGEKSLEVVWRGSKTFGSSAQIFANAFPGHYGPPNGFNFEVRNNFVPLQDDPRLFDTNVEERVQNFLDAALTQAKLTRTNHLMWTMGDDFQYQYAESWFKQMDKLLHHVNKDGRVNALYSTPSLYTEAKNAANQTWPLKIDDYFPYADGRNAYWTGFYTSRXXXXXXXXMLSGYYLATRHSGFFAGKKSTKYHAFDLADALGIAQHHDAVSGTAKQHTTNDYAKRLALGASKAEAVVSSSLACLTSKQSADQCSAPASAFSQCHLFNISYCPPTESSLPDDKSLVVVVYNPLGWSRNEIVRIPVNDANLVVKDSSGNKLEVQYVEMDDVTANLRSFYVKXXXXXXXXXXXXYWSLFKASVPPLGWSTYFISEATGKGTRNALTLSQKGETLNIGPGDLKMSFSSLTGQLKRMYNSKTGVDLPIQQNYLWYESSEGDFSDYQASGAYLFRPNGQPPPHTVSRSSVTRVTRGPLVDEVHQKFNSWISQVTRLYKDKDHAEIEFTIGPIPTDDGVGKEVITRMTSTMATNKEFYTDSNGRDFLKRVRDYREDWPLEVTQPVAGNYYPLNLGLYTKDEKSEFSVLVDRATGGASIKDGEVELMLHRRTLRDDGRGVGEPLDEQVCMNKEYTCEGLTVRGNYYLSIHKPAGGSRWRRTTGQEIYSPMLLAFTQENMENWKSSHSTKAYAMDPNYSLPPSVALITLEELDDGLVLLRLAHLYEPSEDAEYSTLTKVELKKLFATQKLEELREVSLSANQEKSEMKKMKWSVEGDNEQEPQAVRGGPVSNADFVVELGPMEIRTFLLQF
UniProt Q42656, 16-378: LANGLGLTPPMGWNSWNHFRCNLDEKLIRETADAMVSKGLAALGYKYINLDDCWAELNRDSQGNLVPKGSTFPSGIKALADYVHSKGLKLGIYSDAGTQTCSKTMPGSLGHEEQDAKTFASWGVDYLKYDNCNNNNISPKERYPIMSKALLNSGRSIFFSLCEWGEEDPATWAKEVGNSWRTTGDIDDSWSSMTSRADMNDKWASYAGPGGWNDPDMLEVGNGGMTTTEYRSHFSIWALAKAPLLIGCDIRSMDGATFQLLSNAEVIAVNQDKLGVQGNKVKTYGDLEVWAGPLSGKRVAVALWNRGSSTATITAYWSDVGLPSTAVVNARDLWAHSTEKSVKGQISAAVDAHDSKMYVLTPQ
UniProt P53341: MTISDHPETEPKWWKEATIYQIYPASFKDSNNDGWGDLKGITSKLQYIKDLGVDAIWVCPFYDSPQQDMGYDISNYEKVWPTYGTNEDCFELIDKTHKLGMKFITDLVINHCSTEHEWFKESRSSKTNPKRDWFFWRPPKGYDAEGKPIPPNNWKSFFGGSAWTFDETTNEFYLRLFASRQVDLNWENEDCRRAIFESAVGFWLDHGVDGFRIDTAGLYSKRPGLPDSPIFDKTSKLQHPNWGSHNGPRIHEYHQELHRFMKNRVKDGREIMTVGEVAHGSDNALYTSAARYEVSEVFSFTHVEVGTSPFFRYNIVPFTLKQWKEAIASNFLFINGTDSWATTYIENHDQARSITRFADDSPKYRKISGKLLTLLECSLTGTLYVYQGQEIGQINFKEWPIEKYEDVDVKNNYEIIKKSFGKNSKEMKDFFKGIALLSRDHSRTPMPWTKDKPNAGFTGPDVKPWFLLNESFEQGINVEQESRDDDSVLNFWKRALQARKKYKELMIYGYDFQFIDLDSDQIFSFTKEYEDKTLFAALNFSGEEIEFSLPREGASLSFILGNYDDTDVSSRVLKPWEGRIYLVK

Columns and labels:
α-D-mannosidase = target: T1, α-D-mannosidase (Canavalia ensiformis, UniProt C0HJB3); test: Glycosidase inhibition: α-D-mannosidase; type: biochemical, Jack beans (Canavalia ensiformis); details: read-out: % inhibition, mannosidase
T1 construct: purchased Sigma
Experimental: All enzymes were purchased from Sigma, as were the appropriate p-nitrophenyl substrates. Assays were carried out in microtitre plates. Enzymes were assayed in 0.1M citric acid/0.2M di-sodium hydrogen phosphate (McIlvaine) buffers at the optimum pH for the enzyme. All assays were carried out at 20° C.
Endpoint absorbances were read at 405 nm with a Biorad microtitre plate reader (Benchmark). Water was substituted for the inhibitors in the blanks.

β-D-galactosidase = test: Glycosidase inhibition: β-D-galactosidase; type: biochemical, Bovine; details: 1 mg/ml; second galactosidase line
Experimental: (§1) All enzymes were purchased from Sigma, as were the appropriate p-nitrophenyl substrates. Assays were carried out in microtitre plates. Enzymes were assayed in 0.1M citric acid/0.2M di-sodium hydrogen phosphate (McIlvaine) buffers at the optimum pH for the enzyme. All assays were carried out at 20° C. For screening assays the incubation assay consisted of 10 μl of enzyme solution, 10 μl of inhibitor solution (made up in water) and 50 μl of the appropriate 5 mM p-nitrophenyl substrate (3.57 mM final conc.) made up in McIlvaine buffer at the optimum pH for the enzyme.
(§2) The reactions were stopped with 0.4M glycine (pH 10.4) during the exponential phase of the reaction, which was determined at the beginning of the assay using blanks with water, which were incubated for a range of time periods to measure the reaction rate using 5 mM substrate solution. Endpoint absorbances were read at 405 nm with a Biorad microtitre plate reader (Benchmark). Water was substituted for the inhibitors in the blanks.

α-D-galactosidase = target: T2, α-D-galactosidase (Coffea arabica, UniProt Q42656); test: Glycosidase inhibition: α-D-galactosidase; type: biochemical, Green coffee beans (Coffea sp.); details: read-out: % inhibition, galactosidase
T2 construct: purchased Sigma
Experimental: as §1, §2

α-D-glucosidase = target: T3, α-D-glucosidase (Saccharomyces cerevisiae, UniProt P53341); test: Glycosidase inhibition (p-nitrophenyl substrate): α-D-glucosidase, yeast; type: biochemical, Saccharomyces cerevisiae (Baker's yeast); details: 1 mg/ml; read-out: % inhibition, gluc (yeast)
T3 construct: purchased Sigma
Experimental: as §1, §2

Structure (SMILES)	inhibition at 1000 µg/mL (α-D-mannosidase) [%]	% inhibition, galactosidase (β-D-galactosidase) [%]	inhibition at 1000 µg/mL (α-D-galactosidase) [%]	inhibition at 1000 µg/mL (α-D-glucosidase) [%]
OC[C@H]1[C@@H](O)[C@H](O)[C@@H]2[C@@H](O)[C@@H](O)CN21 [Compound 22, 3,7,7a-triepi-casuarine]	-1	52	-2	
OC[C@H]1[C@@H](O)[C@H](O)[C@H]2[C@@H](O)[C@@H](O)CN21 [3,7-diepi-casuarine (10), (1R,2R,3S,6S,7R,7aR)-3-(hydroxymethyl)-1,2,6,7-tetrahydroxypyrolizidine]		24	-11	-2
OC[C@@H]1[C@@H](O)[C@H](O)[C@H]2[C@@H](O)[C@@H](O)CN21 [7-epi-casuarine (11), 7-epi-casuarine]	10	35		11
OC[C@H]1[C@@H](O)[C@H](O)[C@H]2[C@H](O)[C@@H](O)CN21 [3-epi-casuarine (14), 3-epi-casuarine]	-4	6		0
OC[C@H]1[C@@H](O)[C@H](O)[C@H]2[C@@H](O)[C@H](O)CN21 [Compound 12, 3,6,7-triepi-casuarine]		6		
OC[C@H]1[C@@H](O)[C@H](O)[C@@H]2[C@@H](O)[C@H](O)CN21 [Compound 21, 3,6,7,7a-tetraepi-casuarine]		3		-1
OC[C@@H]1[C@@H](O)[C@H](O)[C@H]2[C@H](O)[C@@H](O)CN21 [casuarine (8)]	5	0		
